For this assay, the target named is T1, Gcn5-Ada2 complex (Saccharomyces cerevisiae, UniProt Q03330).
T1 sequence (Q03330 67-317): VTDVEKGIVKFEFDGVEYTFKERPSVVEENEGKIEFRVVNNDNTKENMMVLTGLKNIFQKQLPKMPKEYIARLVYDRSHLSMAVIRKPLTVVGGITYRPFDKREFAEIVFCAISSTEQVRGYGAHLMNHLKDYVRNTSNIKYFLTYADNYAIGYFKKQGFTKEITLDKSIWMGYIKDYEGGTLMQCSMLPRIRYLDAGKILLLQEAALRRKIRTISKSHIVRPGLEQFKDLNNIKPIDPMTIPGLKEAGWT
T1 sequence (Q02336 1-120 partner): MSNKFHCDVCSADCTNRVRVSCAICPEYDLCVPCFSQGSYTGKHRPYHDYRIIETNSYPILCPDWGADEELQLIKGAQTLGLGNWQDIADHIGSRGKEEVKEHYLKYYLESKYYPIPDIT
As to the kind of experiment: ITC binding of acyl-CoAs to the Gcn5-Ada2 complex. Particulars: Supplementary Fig. 3j, value given in the reply to reviewers. On the procedure:
ITC titrations were performed using a MicroCal ITC200 system (GE Healthcare, USA) at 20 °C. For ITC measurement, peptides and proteins were dialyzed into the same buffer (25 mM Tris-HCl, pH 8.0, 150 mM NaCl). […] For reader-related ITC experiments, peptides at 2.0 mM in the syringe were titrated into Taf14YEATS/Sas5YEATS/Sth1BD at 0.1–0.2 mM in the sample cell. Each titration consisted of 20 successive injections. The titration curves were processed using the Origin 7.0 software program (OriginLab) according to the one-binding-site fitting model. Each titration was repeated twice, and one representative plot was shown in the paper. The dissociation constants (Kd), enthalpy changes (ΔH), and fitting errors were derived from one representative ITC plot.

This is an account of results in article PMC8927147, “Global profiling of regulatory elements in the histone benzoylation pathway” (Nature Communications, 2022).

What is called Kd is a measure of binding affinity in units of concentration. High values mean weaker binding, low ones tighter binding.

On to succinyl-CoA, for which the Kd turned out to be 14.5 µM.
